# Source: article PMC6418270, “The pharmacological and functional characterization of the serotonergic system in Anopheles gambiae and Aedes aegypti: influences on flight and blood-feeding behavior” (Scientific Reports, 2019)
# Protein sequences, listed by entry. Tags and fused reporters are not part of them.
# UniProt A0A1S4GEY1, entry or part of it: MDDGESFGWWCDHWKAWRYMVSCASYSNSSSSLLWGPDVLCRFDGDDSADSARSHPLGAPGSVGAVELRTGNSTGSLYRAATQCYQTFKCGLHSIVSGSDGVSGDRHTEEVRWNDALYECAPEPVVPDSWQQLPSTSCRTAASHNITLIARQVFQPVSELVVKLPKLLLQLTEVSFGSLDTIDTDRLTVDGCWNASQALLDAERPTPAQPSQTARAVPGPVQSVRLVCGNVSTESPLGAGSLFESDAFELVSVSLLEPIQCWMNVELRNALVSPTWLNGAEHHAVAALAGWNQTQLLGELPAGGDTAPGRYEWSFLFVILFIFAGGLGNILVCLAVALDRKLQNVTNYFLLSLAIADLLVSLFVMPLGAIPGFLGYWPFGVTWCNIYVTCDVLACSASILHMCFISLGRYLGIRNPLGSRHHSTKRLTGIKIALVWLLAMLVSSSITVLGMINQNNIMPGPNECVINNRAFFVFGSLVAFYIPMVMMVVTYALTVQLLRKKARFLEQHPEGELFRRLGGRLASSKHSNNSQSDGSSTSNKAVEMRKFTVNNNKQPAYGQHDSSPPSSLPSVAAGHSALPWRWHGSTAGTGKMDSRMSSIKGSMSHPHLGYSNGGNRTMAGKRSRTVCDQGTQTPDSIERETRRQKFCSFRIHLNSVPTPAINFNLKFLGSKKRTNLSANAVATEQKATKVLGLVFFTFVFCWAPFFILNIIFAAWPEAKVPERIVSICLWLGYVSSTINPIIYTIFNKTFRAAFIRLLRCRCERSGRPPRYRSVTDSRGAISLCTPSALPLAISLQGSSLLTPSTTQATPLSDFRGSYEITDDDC
# UniProt A7UR33, entry or part of it: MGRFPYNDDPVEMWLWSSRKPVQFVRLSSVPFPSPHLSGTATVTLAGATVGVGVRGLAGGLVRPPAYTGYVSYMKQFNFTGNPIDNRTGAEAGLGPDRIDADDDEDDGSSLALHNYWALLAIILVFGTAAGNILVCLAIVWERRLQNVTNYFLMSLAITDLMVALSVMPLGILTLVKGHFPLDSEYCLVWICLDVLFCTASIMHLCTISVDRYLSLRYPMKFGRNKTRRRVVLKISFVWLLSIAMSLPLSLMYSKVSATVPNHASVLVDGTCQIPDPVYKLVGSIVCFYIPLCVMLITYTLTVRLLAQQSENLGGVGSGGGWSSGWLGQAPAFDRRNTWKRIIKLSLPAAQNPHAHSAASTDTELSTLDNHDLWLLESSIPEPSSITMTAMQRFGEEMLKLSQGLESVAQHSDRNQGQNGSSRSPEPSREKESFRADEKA
# Counter-ions that a name gives are not always drawn.
# What was measured:
# AGAP002232 = AGAP002232 (Anopheles gambiae, UniProt A0A1S4GEY1); experiment: Fluo-4 calcium assay in CRE-luc2P HEK-293 cells expressing AGAP002232; format: cell-based; settings: antagonist test; receptor not given, taken as both 5-HT2 cell lines
# Experimental: The GloResponse™ CRE-luc2P human embryonic kidney (HEK-293) reporter cells were incubated at 37 °C with an atmosphere of 5% CO2, and maintained in Dulbecco’s Modified Eagle Medium (DMEM) supplemented with 10% fetal bovine serum (FBS) and […] hygromycin B. Transfection of the HEK-293 cells with 1 μg of plasmid DNA was performed with Amaxa Nucleofector™ technology (Lonza, Basel, Switzerland) as per manufacturer’s instructions. A week post-transfection, selective pressure was applied with […] of G418 antibiotic to generate stable lines.
# 1 × 10^6 cells per well were seeded into a 96-well black all-clear bottom plate and incubated overnight in 10% FBS/90% DMEM at 37 °C with an atmosphere of 5% CO2. […] Fluorescence levels were determined with a FlexStation3 microplate reader, with excitation and emission wavelengths set to 485 and 525 nm, respectively (Molecular Devices LLC). Basal fluorescence levels were measured for 17 seconds, at which time, 25 μl of the agonist compound was added. Fluorescence measurements continued to be recorded for a total of 120 seconds at 2-second intervals. When testing antagonists, cells were treated with the compound prior to determination of fluorescence levels.
# Luminescence and calcium assay data were normalized and fitted with a non-linear least squares regression to generate dose-response curves, EC50 and IC50 values. […]
# AGAP002229 = AGAP002229 (Anopheles gambiae, UniProt A7UR33); experiment: Fluo-4 calcium assay in CRE-luc2P HEK-293 cells expressing AGAP002229; format: cell-based; settings: antagonist test; receptor not given, taken as both 5-HT2 cell lines
# Experimental: A week post-transfection, selective pressure was applied with […] of G418 antibiotic to generate stable lines.
# 1 × 10^6 cells per well were seeded into a 96-well black all-clear bottom plate and incubated overnight in 10% FBS/90% DMEM at 37 °C with an atmosphere of 5% CO2. The following day, 2X Fluo-4 Direct calcium dye (Molecular Devices LLC, San Jose, CA) was added to each well and incubated in the same conditions for 45 minutes before the assay was completed. At this time, serial dilutions of the test compounds were prepared in a 96-well clear flat bottom plate. […] Fluorescence measurements continued to be recorded for a total of 120 seconds at 2-second intervals. When testing antagonists, cells were treated with the compound prior to determination of fluorescence levels.
# Luminescence and calcium assay data were normalized and fitted with a non-linear least squares regression to generate dose-response curves, EC50 and IC50 values. Unpaired t-tests or Dunnett’s multiple comparisons test were performed accordingly to compare EC50 or IC50 values. Locomotion was measured based on the distance required for flight recovery. […] In the blood-feeding experiments, the percentage of blood-fed mosquitoes was calculated for each treatment group. […] Size of bloodmeals were compared with an unpaired t-test or Mann-Whitney test after normality was evaluated with the Kolmogorov-Smirnov test. […]
structure (smiles),measurement,setting,value
"CN1CCC(=C2c3ccccc3C=Cc3ccccc32)CC1 [cyproheptadine, cyproheptadine hydrochloride sesquihydrate]",Ability to inhibit activity in a dose-response manner,AGAP002232,exhibited the ability to inhibit activity in a dose-response manner
same,Ability to inhibit activity in a dose-response manner,AGAP002229,exhibited the ability to inhibit activity in a dose-response manner
